Source: paper PMC6026870, “Selective induction of cancer cell death by VDAC1‐based peptides and their potential use in cancer therapy” (Molecular Oncology, 2018)
Several values for one entry are separate records, joined by “and”; a condition that tells them apart may be missing. Identical values can stand only once.

Assays:
DU‐145 = assay type: cell-based; conditions: DU‐145; 6 h, serum‐free medium; PI staining, FACS; from maximal extent of cell death; mean ± SE (n = 3); read-out: Peptide EC50, μM (half‐maximal cell death activity)
PANC1 = assay type: cell-based; conditions: PANC1; 6 h, serum‐free medium; PI staining, FACS; from maximal extent of cell death; mean ± SE (n = 3); read-out: Peptide EC50, μM (half‐maximal cell death activity)
A549 = assay type: cell-based; conditions: A‐549; 6 h, serum‐free medium; PI staining, FACS; from maximal extent of cell death; mean ± SE (n = 3); read-out: Peptide EC50, μM (half‐maximal cell death activity)
U‐87MG = assay type: cell-based; conditions: U‐87MG; 6 h, serum‐free medium; PI staining, FACS; from maximal extent of cell death; mean ± SE (n = 3); read-out: Peptide EC50, μM (half‐maximal cell death activity)
MDA‐MB‐231 = assay type: cell-based; conditions: 6 h, serum‐free medium, PI staining, FACS, from maximal extent of cell death, mean ± SE (n = 3), read-out: Peptide EC50, μM (half‐maximal cell death activity)
PC‐3 = assay type: cell-based; conditions: PC‐3; 6 h, serum‐free medium; PI staining, FACS; from maximal extent of cell death; mean ± SE (n = 3); read-out: Peptide EC50, μM (half‐maximal cell death activity)
PWR‐1E = assay type: cell-based; conditions: PWR‐1E noncancer cells; 6 h, serum‐free medium; PI staining, FACS; from maximal extent of cell death; mean ± SE (n = 3); read-out: Peptide EC50, μM (half‐maximal cell death activity)
CNS‐1 = assay: Cell death, PI staining and FACS; assay type: cell-based, rat; conditions: 6 h, serum‐free medium, PI staining, FACS, from maximal extent of cell death, mean ± SE (n = 3), read-out: Peptide EC50, μM (half‐maximal cell death activity)
Procedure: (§1) Leukemia cells, U‐937, MEC‐1 cells (4 × 10^5 or 8 × 10^5 cells/sample, respectively), as well as other leukemia or suspension cell lines, were incubated in 200 μL serum‐free medium with various concentrations of the peptide for 90 min at 23–25 °C, collected by centrifugation (500 g, 5 min), washed with PBS, and analyzed for cell death. Adherent cells (6 × 10^5 mL^−1 at 70–80% confluence) were incubated with the peptide of interest in 500 μL serum‐free recommended culture medium for 3–6 h at 37 °C and 5% CO2. The cells were then trypsinized, centrifuged (1500 g, 5 min), washed with PBS, and analyzed for the desired activity. Following peptide treatment, cells were subjected to cell death analysis. Propidium iodide (PI) staining was performed by addition of PI (6.25 μg·mL^−1) to the cells and immediate analysis by the EC800 Flow cytometer Analyzer–Eclipse or the FACS caliber (Becton‐Dickinson, San Jose, CA, USA) and BD […] PRO software (BD Biosciences, San Jose, CA, USA).
Forty‐one cancerous and five noncancerous cell lines were used in this study to examine the cell‐killing activity of the VDAC1‐based peptides Antp‐LP4, Tf‐LP4, Tf‐D‐LP4, R‐Tf‐D‐LP4, N‐Ter‐Antp, and others (Figs 1, 2, 3 and Tables 1, 2, 3). For each line, cells were incubated with different peptide concentrations, and cell death was determined by PI staining and FACS analysis (Figs 1, 2, 3). […]

SKOV‐3 = assay: Cell death, PI staining and FACS; assay type: cell-based, human; conditions: 6 h, serum‐free medium, PI staining, FACS, from maximal extent of cell death, mean ± SE (n = 3), read-out: Peptide EC50, μM (half‐maximal cell death activity)
Procedure: as §1
(§2) Forty‐one cancerous and five noncancerous cell lines were used in this study to examine the cell‐killing activity of the VDAC1‐based peptides Antp‐LP4, Tf‐LP4, Tf‐D‐LP4, R‐Tf‐D‐LP4, N‐Ter‐Antp, and others (Figs 1, 2, 3 and Tables 1, 2, 3). For each line, cells were incubated with different peptide concentrations, and cell death was determined by PI staining and FACS analysis (Figs 1, 2, 3). In addition, for each cell line, the concentration of the peptide inducing 50% cell death (EC50) was determined (Tables 1, 2, 3).

HepG2 = assay: Cell death, PI staining and FACS; assay type: cell-based, human; conditions: 6 h, serum‐free medium, PI staining, FACS, from maximal extent of cell death, mean ± SE (n = 3), read-out: Peptide EC50, μM (half‐maximal cell death activity)
Procedure: as §1, §2

AsPC1 = assay: Cell death, PI staining and FACS; assay type: cell-based, human; conditions: 6 h, serum‐free medium, PI staining, FACS, from maximal extent of cell death, mean ± SE (n = 3), read-out: Peptide EC50, μM (half‐maximal cell death activity)
Procedure: as §1, §2

THP‐1 = assay: Cell death, PI staining and FACS; assay type: cell-based, human; conditions: 90 min, serum‐free medium, PI staining, FACS, from maximal extent of cell death, mean ± SE (n = 3), read-out: Peptide EC50, μM (half‐maximal cell death activity)
Procedure: as §1, §2

H358 = assay: Cell death, PI staining and FACS; assay type: cell-based, human; conditions: 6 h, serum‐free medium, PI staining, FACS, from maximal extent of cell death, mean ± SE (n = 3), read-out: Peptide EC50, μM (half‐maximal cell death activity)
Procedure: as §1, §2

U‐937 = assay: Cell death, PI staining and FACS; assay type: cell-based, human; conditions: 90 min, serum‐free medium, PI staining, FACS, from maximal extent of cell death, mean ± SE (n = 3), read-out: Peptide EC50, μM (half‐maximal cell death activity)
Procedure: as §1, §2

T3M4 = assay: Cell death, PI staining and FACS; assay type: cell-based, human; conditions: 6 h, serum‐free medium, PI staining, FACS, from maximal extent of cell death, mean ± SE (n = 3), read-out: Peptide EC50, μM (half‐maximal cell death activity)
Procedure: as §1, §2

A‐375 = assay: Cell death, PI staining and FACS; assay type: cell-based, human; conditions: 6 h, serum‐free medium, PI staining, FACS, from maximal extent of cell death, mean ± SE (n = 3), read-out: Peptide EC50, μM (half‐maximal cell death activity)
Procedure: as §1, §2

Molt‐4 = assay: Cell death, PI staining and FACS; assay type: cell-based, human; conditions: 90 min, serum‐free medium, PI staining, FACS, from maximal extent of cell death, mean ± SE (n = 3), read-out: Peptide EC50, μM (half‐maximal cell death activity)
Procedure: as §1, §2

MEC‐1 = assay: Cell death, PI staining and FACS; assay type: cell-based, human; conditions: 90 min, serum‐free medium, PI staining, FACS, from maximal extent of cell death, mean ± SE (n = 3), read-out: Peptide EC50, μM (half‐maximal cell death activity)
Procedure: as §1, §2

MCF‐7 = assay: Cell death, PI staining and FACS; assay type: cell-based, human; conditions: 6 h, serum‐free medium, PI staining, FACS, from maximal extent of cell death, mean ± SE (n = 3), read-out: Peptide EC50, μM (half‐maximal cell death activity)
Procedure: as §1, §2

T‐Rex‐293 = assay: Cell death, PI staining and FACS; assay type: cell-based, human; conditions: T‐Rex‐293 nonmalignant; 6 h, serum‐free medium; PI staining, FACS; from maximal extent of cell death; mean ± SE (n = 3); read-out: Peptide EC50, μM (half‐maximal cell death activity)
Procedure: as §1, §2

Jurkat = assay: Cell death, PI staining and FACS; assay type: cell-based, human; conditions: 90 min, serum‐free medium, PI staining, FACS, from maximal extent of cell death, mean ± SE (n = 3), read-out: Peptide EC50, μM (half‐maximal cell death activity)
Procedure: as §1, §2

HuH‐7 = assay: Cell death, PI staining and FACS; assay type: cell-based, human; conditions: 6 h, serum‐free medium, PI staining, FACS, from maximal extent of cell death, mean ± SE (n = 3), read-out: Peptide EC50, μM (half‐maximal cell death activity)
Procedure: as §1, §2

HeLa = assay: Cell death, PI staining and FACS; assay type: cell-based, human; conditions: 6 h, serum‐free medium, PI staining, FACS, from maximal extent of cell death, mean ± SE (n = 3), read-out: Peptide EC50, μM (half‐maximal cell death activity)
Procedure: as §1, §2

K‐562 = assay: Cell death, PI staining and FACS; assay type: cell-based, human; conditions: 90 min, serum‐free medium, PI staining, FACS, from maximal extent of cell death, mean ± SE (n = 3), read-out: Peptide EC50, μM (half‐maximal cell death activity)
Procedure: as §1, §2

Question: Which results are given for `CC[C@H](C)[C@H](NC(=O)[C@H](CCCCN)NC(=O)[C@@H](NC(=O)[C@H](CCC(N)=O)NC(=O)[C@@H](N)CCCNC(=N)N)[C@@H](C)CC)C(=O)N[C@@H](Cc1c[nH]c2ccccc12)C(=O)N[C@@H](Cc1ccccc1)C(=O)N[C@@H](CCC(N)=O)C(=O)N[C@@H](CC(N)=O)C(=O)N[C@@H](CCCNC(=N)N)C(=O)N[C@@H](CCCNC(=N)N)C(=O)N[C@@H](CCSC)C(=O)N[C@@H](CCCCN)C(=O)N[C@@H](Cc1c[nH]c2ccccc12)C(=O)N[C@@H](CCCCN)C(=O)N[C@@H](CCCCN)C(=O)N[C@@H](CO)C(=O)N[C@@H](Cc1c[nH]c2ccccc12)C(=O)N[C@H](C(=O)N[C@@H](Cc1c[nH]c2ccccc12)C(=O)N[C@@H](CCC(=O)O)C(=O)N[C@@H](CCCCN)C(=O)N[C@@H](CCCCN)C(=O)N[C@@H](CC(C)C)C(=O)N[C@@H](CCC(=O)O)C(=O)N[C@H](C(=O)N[C@@H](C)C(=O)N[C@H](C(=O)N[C@@H](CC(N)=O)C(=O)N[C@@H](CC(C)C)C(=O)N[C@@H](C)C(=O)N[C@@H](Cc1c[nH]c2ccccc12)C(=O)N[C@H](C(=O)N[C@@H](C)C(=O)NCC(=O)N[C@@H](CC(N)=O)C(=O)N[C@@H](CO)C(=O)N[C@@H](CC(N)=O)C(=O)N[C@@H](CCCCN)C(=O)N[C@@H](Cc1c[nH]c2ccccc12)C(=O)N[C@H](C(=O)N[C@@H](Cc1c[nH]c2ccccc12)C(=O)N[C@@H](CCCCN)C(=O)O)[C@@H](C)O)[C@@H](C)O)C(C)C)[C@@H](C)O)[C@@H](C)O` [Antp‐LP4]?
Answer: EC50 (DU‐145): 4 ± 0.5 µM; EC50 (PANC1): ≥ 18 µM and 28.7 µM; EC50 (A549): ≤ 6 µM and 6.4 µM; EC50 (U‐87MG): 6.2 ± 1.3 µM; EC50 (MDA‐MB‐231): 8.1 ± 2.4 µM; EC50 (PC‐3): 5.9 ± 1.5 µM; EC50 (PWR‐1E): 15.5 ± 2 µM; EC50 (CNS‐1): 1.3 ± 0.8 µM; EC50 (SKOV‐3): 6.9 ± 0.7 µM; EC50 (HepG2): 8.6 ± 3 µM; EC50 (AsPC1): 12 ± 7.3 µM; EC50 (THP‐1): 1.3 ± 0.5 µM; EC50 (H358): ≤ 6 µM and 7.6 µM; EC50 (U‐937): ≤ 3 µM and 1.9 µM; EC50 (T3M4): 2 ± 0.7 µM; EC50 (A‐375): 33.8 ± 3.2 µM; EC50 (Molt‐4): 3.4 ± 2 µM; EC50 (MEC‐1): ≤ 3 µM and 2.4 µM; EC50 (MCF‐7): 10.1 ± 0.2 µM; EC50 (T‐Rex‐293): 29.3 ± 4 µM; EC50 (Jurkat): 1.3 ± 0.5 µM; EC50 (HuH‐7): 2.3 ± 1.5 µM; EC50 (HeLa): 3.9 ± 1.1 µM; EC50 (K‐562): 1.2 ± 0.1 µM
